Experimental data from patent US20070118999A1, “Compositions suitable for the treatment of hair comprising chelants and methods for reducing oxidative hair damage” (The Procter & Gamble Company, priority 2001, published 2007).

Assay: log Conditional Stability Constant at pH 10 with Ca
Type: physicochemical

log Conditional Stability Constant (pH 10) Ca: 10.13
Substance: diethylenetriaminepentaacetate [DTPA]
